Assay: Albumin polymer content (HPLC)
Format: physicochemical
Conditions: for Monomer (%): share of albumin monomer; for Polymer (%): share of albumin polymer
Experimental: The content of human serum albumin was determined by HPLC. The human serum albumin was determined at a wavelength of 228 nm in an HPLC equipped with a Tosohaas TSK G3000 SWXL gel column and a UV-detector (1260VWD G1314B, Agilent technologies), with a mobile phase of 0.1 mol/L dipotassium hydrogen phosphate solution and an injection volume of 10 μl. The albumin content was calculated using the external standard method.
As a commercially available pharmaceutical product, human serum albumin should contain no more than 5% of the polymer according to its quality standard, since the albumin polymer may induce allergic reaction. The determination method for albumin in Example 10 can distinguish albumin monomer from the polymer. The albumin polymer and paclitaxel content were detected in the compositions from Example 1-9 (referred as initial formulation) and the compositions obtained from Method 1 of Example 24, respectively using mannitol and human serum albumin as a lyoprotectant (corresponding to Example 1-9), based on the determination method for albumin and paclitaxel in Example 10, and the albumin polymer content was calculated per 1 mg paclitaxel.
The amount of polymer in an albumin solution was increased by dialysis using a regenerated cellulose ultrafiltration membrane (PXC100C50, Millipore) with the cut-off molecular weight of 100K. The ratio of albumin polymer was detected using the method in Example 10, and the content of albumin was determined by Kjeldahl method to avoid the deviation produced by the different responses to potential polymers of HPLC method.

Row | Substance | Monomer (%) | Polymer (%)
1 | human serum albumin [HSA] | 95.8% | 4.2%
2 | Poly-HSA: albumin solution enriched in polymer by dialysis with a 100K ultrafiltration membrane | 25.1% | 74.9%
